This is an account of results in US20250215080A1 (published 2025).

Amino acid sequences for entries named in this document (tags omitted). Chains listed by the source or under a name are the forms on record and can include a tag or linker.
UniProt Q9NP99, other isoform, or with tags, fused parts or gaps limits assumed: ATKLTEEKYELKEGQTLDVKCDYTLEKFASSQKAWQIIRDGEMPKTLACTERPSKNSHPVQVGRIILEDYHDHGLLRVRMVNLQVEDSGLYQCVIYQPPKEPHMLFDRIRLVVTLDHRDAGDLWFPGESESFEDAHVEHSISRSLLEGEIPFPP

Experiment [1] concerns the target T1, human TREM2 (hTREM2), expressed on cells (human, UniProt Q9NZC2 19-230).
T1 sequence: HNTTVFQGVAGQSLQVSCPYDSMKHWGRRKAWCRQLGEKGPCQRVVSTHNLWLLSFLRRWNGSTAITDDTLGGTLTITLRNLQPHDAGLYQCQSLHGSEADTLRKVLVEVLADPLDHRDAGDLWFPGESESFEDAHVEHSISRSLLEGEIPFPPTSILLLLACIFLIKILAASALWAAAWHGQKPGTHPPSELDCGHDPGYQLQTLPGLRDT
Put plainly: cell-based or functional assay.

Experiment [2] deals with T1, human TREM2 (hTREM2), expressed on cells. Put plainly: cell-based or functional assay. This is another data set of the same source.
Experiment [3] addresses T2, hTREM1 IgSF-hTREM2 stalk-hFc (human, UniProt Q9NP99 21-134, limits assumed, biotinylated in the -bio form).
T2 construct: domain: IgSF; also called hTREM1 IgSF-T2 stalk-hFc-bio; hTREM1 IgSF-hTREM2 stalk-hFc-bio
Put plainly: ELISA.

Experiment [4] addresses T1, human TREM2 (hTREM2), expressed on cells. Put plainly: cell-based or functional assay. The source holds these as a separate data set.

B1: MOR042596 (full IgG) (antibody, V domains shown)
VH: QVQLVQSGAEVKKPGASVKVSCKASGYTFTGYHMSWVRQAPGQGLEWMGVINPVSGNTVYAQKFQGRVTMTRDTSISTAYMELSRLRSEDTAVYYCARIPSYTYAFDYWGQGTLVTVSS
VL: DIQMTQSPSSLSASVGDRVTITCRASQDISNYLAWYQQKPGKAPKLLIYRASSLQSGVPSRFSGSGSGTDFTLTISSLQPEDFATYYCQQHGHSPTTFGQGTKVEIKR
notes: Parental antibody of MOR044698; VH1B k1
As for B1, the “RGA in THP-B5 cells (fold increase over BG)” value in experiment [1] stood at 1.8 fold. In addition, in experiment [2], the “Internalization (fold over control)” value came to 76 fold and the “TREM2 activation (fold in RGA)” value was found to be 1.6 fold. Moreover, the binding result in experiment [3] is on record as “no binding”. Besides, the “Activation THP1 B5-NFAT reporter fold activation” value in experiment [4] turned out to be 1.6 fold.
